Data reported in US5494917A, “Cognition enhancing quinuclidine compound” (Kanegafuchi Kagaku Kogyo Kabushiki Kaisha, priority 1993, dated 1996).

System: experimental amnesia in rat induced by lesioning basal forebrain (BF)
Assay: Anti-amnesic effect: step-through passive avoidance, amnesia induced by BF lesion (ibotenic acid)
Assay type: in vivo, Wistar male rat
Settings: 30 minutes before aquisition trial, retention after 24 hours, max 300 s
Method: As experimental animals, Wistar male rats and ddY male mice were used for the experiments after they were housed for a week under every 12 hours'dark-light cycle at room temperature of 24° to 26° C.
The effect on experimental amnesia in rat induced by lesioning basal forebrain (BF) was evaluated.
The experiment was carried out using an experimental apparatus of step-through type passive avoidance task for rat (made by Ohara-ika-sangyoK.K. ) comprising two compartments of dark and light. That is, the dark compartment (height: 200 cm, width: 150 cm, length: 200 cm) was a black plastic box and was floored with stainless grids for giving an electrical shock so that an electricity might be turned on a determined time after interception of a photobeam placed in the dark compartment. The light compartment made of transparent plastic (height: 200 cm, width: 250 cm, length: 200 cm) was provided adjacent to the dark compartment and was lightened from a location spaced 25 cm above by a 60 W electric lamp. Between the two compartments, there was provided an entrance with a guillotine door which could be opened and closed, and when the guillotine door was opened, a rat could freely move from one compartment to another.
Amnesia was induced by BF lesion. Among presently known methods for inducing amnesia, this method is considered to provide an animal model having the most similar pathology to Alzheimer's disease. […]
Anti-amnesic effect was evaluated according to the following procedure.
A Wistar male rat (9 week-old) previously conditioned in the dark-light box was put in the light compartment and the guillotine door was opened. […] After 24 hours, retention trial was carried out in the same manner as in the aquisition trial, and latency, a period until the animal put in the light compartment entered the dark compartment, was measured maximally 300 seconds. […]

In the case of CC1OC2(CS1)CN1CCC2CC1 (stereo not drawn) [AF102B, cis-2-methylspiro(1,3-oxathiolane-5,3') quinuclidine, reference compound], the Latency (0.1 mg/kg p.o.) is reported as 76 s, the Latency (1.0 mg/kg p.o.) is reported as 154 s and the Latency (10 mg/kg p.o.) is reported as 78 s.
